What was measured:
human 5-HT3A receptors = target: T1, human 5-HT3A receptors (Homo sapiens, UniProt P46098); assay: Two-electrode voltage clamp of 5-HT-induced currents in Xenopus oocytes, incl. co-application; format: cell-based; conditions: inhibition of 5-HT EC50 response (1.7 μM 5-HT)
T1 construct: expressed in transfected cells; host or cells: Xenopus laevis oocytes (cRNA from pGEMHE)
Procedure: (§1) Stage V and VI oocytes were injected with 50 nl of ∼300 ng μl^−1 cRNA, and currents were recorded 1–4 days post-injection. A ratio of 1:3 (A:B) was used for the expression of heteromeric 5-HT3 receptors.
(§2) Xenopus laevis oocyte positive females were purchased from NASCO (Fort Atkinson, Wisconsin, USA) and maintained according to standard methods.
Currents were filtered at a frequency of 1 kHz. Micro-electrodes were fabricated from borosilicate glass (GC120TF-10, Harvard Apparatus, Edenbridge, Kent, UK) using a two stage horizontal pull (P-87, Sutter Instrument Company, California, USA) and filled with 3 M KCl. […] Oocytes were perfused with saline at a rate of 15 ml min^−1. Drug application was via a simple gravity fed system calibrated to run at the same rate. Extracellular saline contained (mM), 96 NaCl, 2 KCl, 1 MgCl2 and 5 mM HEPES; adjusted to pH 7.4 with NaOH. […]
97) • Scenario 1: Where compounds share a binding site it was assumed that the extent of binding would be determined by a competitive interaction between the compounds such that the proportion of binding sites occupied (Pocc) in the presence of two competing compounds is given by the following expression: (2) Pocc=AKA+BKB/1+AKA+BKB where A and B are the concentrations of two ligands and KA and KB are their affinity constants respectively. […]

Protein sequences, listed by entry. Tags and fused reporters are not part of them. Residues count along the entry.
UniProt P46098, 24-478: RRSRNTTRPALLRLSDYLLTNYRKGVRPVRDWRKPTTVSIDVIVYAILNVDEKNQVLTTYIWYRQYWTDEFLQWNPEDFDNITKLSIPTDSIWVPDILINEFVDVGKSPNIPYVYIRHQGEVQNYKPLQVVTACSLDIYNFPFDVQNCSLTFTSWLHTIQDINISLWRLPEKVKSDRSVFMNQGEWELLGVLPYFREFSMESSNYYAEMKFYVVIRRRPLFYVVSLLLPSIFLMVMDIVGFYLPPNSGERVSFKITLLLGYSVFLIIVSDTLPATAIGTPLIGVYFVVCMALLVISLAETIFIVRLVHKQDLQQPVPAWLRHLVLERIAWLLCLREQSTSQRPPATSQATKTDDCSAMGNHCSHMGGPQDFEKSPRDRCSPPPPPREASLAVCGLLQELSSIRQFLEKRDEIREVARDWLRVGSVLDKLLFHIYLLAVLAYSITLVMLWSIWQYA
UniProt O95264, 22-441: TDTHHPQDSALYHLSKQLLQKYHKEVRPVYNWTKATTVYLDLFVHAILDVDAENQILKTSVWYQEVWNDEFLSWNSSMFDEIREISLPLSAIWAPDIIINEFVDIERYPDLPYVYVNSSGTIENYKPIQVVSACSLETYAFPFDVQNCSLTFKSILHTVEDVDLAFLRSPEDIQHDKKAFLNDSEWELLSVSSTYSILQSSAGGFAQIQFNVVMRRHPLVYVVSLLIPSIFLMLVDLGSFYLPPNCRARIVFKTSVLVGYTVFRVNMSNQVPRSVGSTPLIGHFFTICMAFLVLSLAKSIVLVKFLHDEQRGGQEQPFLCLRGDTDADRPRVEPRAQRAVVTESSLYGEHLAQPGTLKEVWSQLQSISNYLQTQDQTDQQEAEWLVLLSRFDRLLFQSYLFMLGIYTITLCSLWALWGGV

human 5-HT3AB receptors = target: T2, human 5-HT3AB receptors (Homo sapiens, UniProt O95264+P46098); assay: Two-electrode voltage clamp of 5-HT-induced currents in Xenopus oocytes; format: cell-based; conditions: inhibition of 5-HT EC50 response (28 μM 5-HT)
T2 construct: expressed in transfected cells; host or cells: Xenopus laevis oocytes (cRNA from pGEMHE)
Procedure: as §1, §2
Currents were filtered at a frequency of 1 kHz. Micro-electrodes were fabricated from borosilicate glass (GC120TF-10, Harvard Apparatus, Edenbridge, Kent, UK) using a two stage horizontal pull (P-87, Sutter Instrument Company, California, USA) and filled with 3 M KCl. […] Oocytes were perfused with saline at a rate of 15 ml min^−1. Drug application was via a simple gravity fed system calibrated to run at the same rate. Extracellular saline contained (mM), 96 NaCl, 2 KCl, 1 MgCl2 and 5 mM HEPES; adjusted to pH 7.4 with NaOH.
Analysis and curve fitting was performed using Prism V3.02 (GraphPad Software, San Diego, California, USA, www.graphpad.com). Concentration-response data for each oocyte was normalised to the maximum current for that oocyte. For inhibition curves, antagonists were routinely co-applied in the presence of agonist. For PXN, oocytes were also pre-treated with the compound for 20 s. A 2 min wash was used between drug applications. […]

Substance: ginkgolide B [GB]
- IC50 (human 5-HT3A receptors): 730 µM
- IC50 (human 5-HT3AB receptors): 3.9 mM

— publication PMC3070799 (Neuropharmacology, 2011)
